Data reported in patent publication US10894035B2, “Use of indole compounds to stimulate the immune system” (priority 2015, dated 2021).

Legend:
Assay in all cases: sPLA2 specificity panel (Table 1)
Assay type in all cases: biochemical
Conditions in all cases: panel of secreted PLA2, result in words
[1] = molecular target: T1, sPLA2GX (Homo sapiens, UniProt O15496)
T1 sequence (O15496 43-165): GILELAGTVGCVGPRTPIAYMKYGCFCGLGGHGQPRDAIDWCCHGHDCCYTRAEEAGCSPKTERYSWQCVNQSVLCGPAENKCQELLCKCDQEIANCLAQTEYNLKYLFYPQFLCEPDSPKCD

[2] = molecular target: T2, sPLA2GIIF (Homo sapiens, UniProt Q9BZM2)
T2 sequence (Q9BZM2 21-168): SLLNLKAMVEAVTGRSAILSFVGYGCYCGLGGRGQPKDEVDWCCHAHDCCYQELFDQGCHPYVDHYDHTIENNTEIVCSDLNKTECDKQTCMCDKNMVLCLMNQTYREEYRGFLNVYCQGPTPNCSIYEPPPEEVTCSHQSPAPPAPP

[3] = molecular target: T3, sPLA2GIIA (Homo sapiens, UniProt P14555)
T3 sequence (P14555 21-144): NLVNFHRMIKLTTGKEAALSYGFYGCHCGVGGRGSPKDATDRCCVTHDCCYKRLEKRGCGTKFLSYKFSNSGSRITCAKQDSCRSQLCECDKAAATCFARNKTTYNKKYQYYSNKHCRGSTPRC
Excerpt: IC50 values for a panel of secreted Phospholipase A2 (sPLA2) are shown.

CCc1c(C(=O)C(N)=O)c2c(OCC(=O)O)cccc2n1Cc1ccccc1 [Compound B]
significant IC50: IC50 sPLA2GX [1] | IC50 sPLA2GIIF [2] | IC50 sPLA2GIIA [3]
